This is an account of results in patent US9682983B2, “BMP inhibitors and methods of use thereof” (THE BRIGHAM AND WOMEN'S HOSPITAL, INC., priority 2013, dated 2017).

For this assay, the system named is TGF-β signaling activity (CAGA-Luc, human embryonic kidney 293T cells). In words: Cell luciferase assay, TGFβ (293T CAGA-Luc, TGF-β1 ligand). Particulars: HEK-293T, read-out: Cellular Assay IC50 (nM) TGFβ.

`c1ccc2c(-c3cnn4cc(-c5ccc(N6CCNCC6)cn5)cnc34)ccnc2c1` [Compound 3]: the IC50 (in general, the concentration that gives 50% inhibition) was 905 nM.
Then `C(#Cc1cnc2c(-c3ccnc4ccccc34)cnn2c1)CN1CCNCC1` [Compound 4, 4-(6-(3-(piperazin-1-yl)prop-1-ynyl)pyrazolo[1,5-a]pyrimidin-3-yl)quinoline], with 2700 nM.
Then `c1ccc2c(-c3cnn4cc(-c5cnc(N6CCNCC6)nc5)cnc34)ccnc2c1` [Compound 5, 4-(6-(2-(piperazin-1-yl)pyrimidin-5-yl)pyrazolo[1,5-a]pyrimidin-3-yl)quinoline], with 40600 nM.
Turning to `c1ccc2c(-c3cnn4cc(-c5ccc(N6C[C@@H]7C[C@H]6CN7)cc5)cnc34)ccnc2c1` [Compound 6, 4-(6-(4-((1S,4S)-2,5-diazabicyclo[2.2.1]heptan-2-yl)phenyl)pyrazolo[1,5-a]pyrimidin-3-yl)quinoline], the IC50 amounted to 39 nM.
Then `c1ccc2c(-c3cnn4cc(-c5ncc(N6CCNCC6)s5)cnc34)ccnc2c1` [Compound 7, 5-(piperazin-1-yl)-2-(3-(quinolin-4-yl)pyrazolo[1,5-a]pyrimidin-6-yl)thiazole], with 3530 nM; and `Oc1cc(-c2cnn3cc(-c4ccc(N5CCNCC5)cc4)cnc23)c2ccccc2n1` [Compound 9, 4-(6-(4-(piperazin-1-yl)phenyl)pyrazolo[1,5-a]pyrimidin-3-yl)quinolin-2-ol], with 36100 nM.
Consider `Cc1cc(-c2cnn3cc(-c4ccc(N5[C@H](C)CNC[C@@H]5C)cc4)cnc23)c2ccccc2n1` [Compound 11, 4-(6-(4-((2R,6S)-2,6-dimethylpiperazin-1-yl)phenyl)pyrazolo[1,5-a]pyrimidin-3-yl)-2-methylquinoline], for which the half-maximal inhibitory concentration (IC50) worked out at 30 nM.
Then `Cc1cc(-c2cnn3cc(-c4ccc(C5CCNCC5)cc4)cnc23)c2ccccc2n1` [Compound 13, 2-methyl-4-(6-(6-(piperazin-1-yl)pyridin-3-yl)pyrazolo[1,5-a]pyrimidin-3-yl)quinoline], with 198 nM.
As to `OCCNCc1ccc2c(-c3cnn4cc(-c5ccc(N6CCNCC6)cc5)cnc34)ccnc2c1` [Compound 14, 2-(((4-(6-(4-(piperazin-1-yl)phenyl)pyrazolo[1,5-a]pyrimidin-3-yl)quinolin-7-yl)methyl)amino)ethanol], the IC50 is 2520 nM.
In the case of `NC(=O)c1ccc2c(-c3cnn4cc(-c5ccc(N6CCNCC6)cc5)cnc34)ccnc2c1` [Compound 15, 4-(6-(4-(piperazin-1-yl)phenyl)pyrazolo[1,5-a]pyrimidin-3-yl)quinoline-7-carboxamide], the IC50 was determined as 1300 nM.
Then `OCc1ccc2c(-c3cnn4cc(-c5ccc(N6CCNCC6)cc5)cnc34)ccnc2c1` [Compound 16, (4-(6-(4-(piperazin-1-yl)phenyl)pyrazolo[1,5-a]pyrimidin-3-yl)quinolin-7-yl)methanol], with 4060 nM; and `CNCc1ccc2c(-c3cnn4cc(-c5ccc(N6CCNCC6)cc5)cnc34)ccnc2c1` [Compound 18, N-methyl-1-(4-(6-(4-(piperazin-1-yl)phenyl)pyrazolo[1,5-a]pyrimidin-3-yl)quinolin-7-yl)methanamine], with 4160 nM.
On to `CN(C)Cc1ccc2c(-c3cnn4cc(-c5ccc(N6CCNCC6)cc5)cnc34)ccnc2c1` [Compound 19, N,N-dimethyl-1-(4-(6-(4-(piperazin-1-yl)phenyl)pyrazolo[1,5-a]pyrimidin-3-yl)quinolin-7-yl)methanamine], for which the IC50 is 13000 nM.
Then `NCc1ccc2c(-c3cnn4cc(-c5ccc(N6CCNCC6)cc5)cnc34)ccnc2c1` [Compound 20, (4-(6-(4-(piperazin-1-yl)phenyl)pyrazolo[1,5-a]pyrimidin-3-yl)quinolin-7-yl)methanamine], with 2960 nM; and `c1cc(-c2cnn3cc(-c4ccc(N5CCNCC5)cc4)cnc23)c2ccc(CN3CCCC3)cc2n1` [Compound 21, 4-(6-(4-(piperazin-1-yl)phenyl)pyrazolo[1,5-a]pyrimidin-3-yl)-7-(pyrrolidin-1-ylmethyl)quinoline], with 17100 nM.
